Peptide text beside a SMILES is read from it. * marks the point of attachment. Cbz = O=C(OCc1ccccc1)*; OtBu = CC(C)(C)O*
Assays:
[1] = target: T1, peptidyl-glutamyl hydrolyzing activity of the proteasome (Bos taurus, UniProt Q3MHN0); assay: Proteasomal activity in lysates of treated BAE cells, substrate Z-LLE-AMC; type: cell-based, bovine; settings: total cell lysates after 15 h incubation of BAECs with 50 µM inhibitor
T1 construct: endogenous in cells; host or cells: primary bovine aortic endothelial cells (BAE), total lysate after 15-16 h treatment of the cells
T1 sequence (Q3MHN0 1-239): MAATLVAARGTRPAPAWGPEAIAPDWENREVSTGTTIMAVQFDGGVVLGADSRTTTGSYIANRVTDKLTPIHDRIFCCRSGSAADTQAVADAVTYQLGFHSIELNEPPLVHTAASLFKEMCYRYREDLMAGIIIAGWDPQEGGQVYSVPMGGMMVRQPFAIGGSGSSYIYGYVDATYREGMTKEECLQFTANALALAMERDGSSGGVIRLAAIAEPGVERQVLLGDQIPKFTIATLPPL
Protocol: Proteasomal activity is reduced in PSI and LLnV treated cell lysates. Lysates prepared from BAE cells incubated for 15 hours with 50 µM of the indicated inhibitors were assayed for their ability to suppress proteasomal function by using Suc-LLVY-AMC as substrate for the chymotryptic activity (a) and Z-LLE-AMC as substrate for the post acidic residue cleaving activity (b). Activities are expressed as the relative fluorescence measured after 45 min of incubation with the substrates and reflect the mean of two independent experiments each performed in duplicate.
BAE cells (1 x 10^6) were plated onto 10 cm plastic dishes and treated for 16 h with either Leupeptin, E64, LLnM, LLnV or PSI (50 µM final concentration) which were diluted form 1000 x DMSO stock solutions. DMSO at a final concentration of 0.1% served as a vehicle-only control. Floating and adherent cells were harvested, lysed by sonication in ice-cold solution of 20 mM Tris-HCI pH 7.5, containing 20% glycerol, centrifuged in a benchtop centrifuge (10 min, 2000 g). The protein concentration of the resulting supernatant was determined by the bicinchoninic acid (BCA) assay (Smith et al., Anal. Biochem. 150 (1985), 76 - 85). […]

[2] = system: p27Kip 1; assay: Western blotting of HUE cell lysates; type: cell-based, human; settings: 50 µM, immunoblot
Protocol: • a. Analysis of PSI-induced DNA fragmentation by agarose gel electrophoresis. […] Neither caspase inhibitor (Ac-YVAD-CHO 250 µM, lane 4; Ac-DEVD-CHO 250 µM, lane 5) nor DMSO (lane 6) induced the characteristic pattern of DNA fragmentation. M1 and M2: DNA size markers (kb). • b. Immunoblot analysis of HUE cell lysates after incubation with PSI. Lysates of HUE cells (30 µg) which had been treated with 50 µM PSI for the times indicated, were separated on 10 or 12% SDS-polyacryamide gels, transferred to nitrocellulose and probed with antibodies recognizing p27^Kip 1, PARP, β-catenin, bcl-2, bcl-xL and bad as described in Materials and Method. Equal loading was controlled by using an antibody directed against GAPDH enzyme.
HUE cell lysates were prepared from cells treated with 50 µM PSI for the times indicated in Fig. 2B by lysing the cells in 1% SDS, 10 mM Tris-HCl pH 7.5 and denaturation at 95°C for 10 min. Equal amounts of protein were separated by 12% SDS-PAGE, transferred to nitrocellulose filters and blocked over night with TBS (50 mM Tris pH 7.5, 200 mM NaCI, 0.05% Tween 20), containing 5% non-fat dry milk-powder. […]

CC[C@H](C)[C@H](NC(=O)OCc1ccccc1)C(=O)N[C@@H](CCC(=O)OC(C)(C)C)C(=O)N[C@@H](C)C(=O)N[C@H](C=O)CC(C)C [PSI, carbobenzoxy-L-isoleucyl-y-t-butyl-L-glutamyl-L-alanyl-L-leucinal] (Cbz-IE(OtBu)AL-aldehyde)
total cellular peptidyl-glutamyl hydrolyzing activity (Z-Leu-Leu-Glu-AMC) [1]: similarly reduced | relative amounts of GAPDH, bc12, bcl-xl and bad [2]: no change

Reference: patent EP1053750A1, “Use of proteasome-inhibitor for the induction of programmed cell death (apoptosis)” (Max-Planck-Gesellschaft zur Förderung der Wissenschaften …, priority 1999, dated 2000)
